The results in this text go back to patent publication US20230117592A1 (SRI International, priority 2019, published 2023).

This test has as its target T1, 12-LOX (Homo sapiens, UniProt P18054).
T1 sequence (P18054 1-663): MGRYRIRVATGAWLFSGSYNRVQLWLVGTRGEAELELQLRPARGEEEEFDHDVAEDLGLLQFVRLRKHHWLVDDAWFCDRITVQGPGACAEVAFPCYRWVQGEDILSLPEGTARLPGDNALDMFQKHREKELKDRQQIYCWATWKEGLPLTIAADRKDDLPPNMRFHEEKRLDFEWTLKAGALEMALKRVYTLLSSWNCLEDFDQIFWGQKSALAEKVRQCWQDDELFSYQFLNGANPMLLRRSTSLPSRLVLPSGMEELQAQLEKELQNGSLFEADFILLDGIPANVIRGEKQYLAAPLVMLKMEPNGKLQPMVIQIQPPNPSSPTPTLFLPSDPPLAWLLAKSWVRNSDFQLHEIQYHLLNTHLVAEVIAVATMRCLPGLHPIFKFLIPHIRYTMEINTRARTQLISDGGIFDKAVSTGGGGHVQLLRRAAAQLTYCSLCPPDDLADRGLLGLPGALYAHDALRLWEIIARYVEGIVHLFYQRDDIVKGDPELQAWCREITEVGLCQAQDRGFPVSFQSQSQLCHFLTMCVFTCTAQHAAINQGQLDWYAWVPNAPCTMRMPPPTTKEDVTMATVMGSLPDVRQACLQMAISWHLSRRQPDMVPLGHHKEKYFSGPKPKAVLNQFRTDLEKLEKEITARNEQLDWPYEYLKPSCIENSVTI
In words: 12-LOX fluorescent assay (in vitro lipoxygenase inhibition). In kind it is biochemical. On the procedure:
12-LOX/15-LOX Fluorescent Assay
The enzyme assay (100 ul) contained 50 mM Tris, pH 7.5, 0.05% Tween-20, 20 μM AA/LA, 1 μM DHR123, and 100 nM recombinant 12-LOX enzyme/50 nM recombinant 15-LOX enzyme. Inhibitors (dissolved in DMSO) were plated at 1 μL into 96-well assay microplates followed by a 40 μL addition of a solution containing 12-LOX/15-LOX enzyme. Enzyme was pre-incubated with compounds for 15 mins. The assay was initiated by the addition of a 40 μL substrate solution containing AA/LA, and 20μL addition of a solution containing DHR123. Enzymatic reaction proceeded for 30 min with kinetic reading at 500 nm excitation & 536 nm emission in SpectraMax Paradigm (MolecularDevice). Percent inhibition was calculated for each compound dose for IC50 curve fitting using 4 Parameter Logistic Model or Sigmoidal Dose-Response Model.

For orientation: IC50 means the concentration at which inhibition is half-maximal. A lower IC50 goes with inhibition by little substance. `CN(CCn1cncn1)c1cc(Nc2ccccc2)ccc1-c1ccccc1` [SS20308-0131-01, N2-(2-(1H-1,2,4-triazol-1-yl)ethyl)-N2-methyl-N4-phenyl-[1,1′-biphenyl]-2,4-diamine] yielded a 50% inhibitory concentration (IC50) of 190 nM. This counts as sub-micromolar.
